Literature values in PMC7559231, “Drug-induced cholestasis assay in primary hepatocytes” (MethodsX, 2020).

How the values were obtained:
[1] = system: sandwich-cultured human hepatocytes; conditions: cited from earlier work
[2] = set-up: method as in per compound in column References of Table 3 ([3], [24]-[44]); conditions: mean total peak plasma concentration in humans; ref per compound in Table 3 ([3], [24]-[44]); cited from earlier work
[3] = 300 µM test compound, 48 h exposure, SCHH, ref [6],[7]

SMILES | DICI 48 h Mean ([1]; 100 µM test compound, 48 h exposure, SCHH, ref [6],[7]) | DICI 48 h Mean [1, 3] | DICI 24 h Mean ([1]; 300 µM test compound, 24 h exposure, SCHH, ref [6],[7]) | DICI 48 h Mean ([1]; 500 µM test compound, 48 h exposure, SCHH, ref [6],[7]) | DICI 24 h Mean [1] | DICI 48 h Mean [1] | DICI 24 h Mean ([1]; 50 µM test compound, 24 h exposure, SCHH, ref [6],[7]) | DICI 24 h Mean ([1]; 100 µM test compound, 24 h exposure, SCHH, ref [6],[7]) | Cmax,total [2] [nM]
CCc1ccc(CCOc2ccc(CC3SC(=O)NC3=O)cc2)nc1 (stereo not shown) [Pioglitazone, pioglitazone] | 0.88 | 0.98 |  |  |  |  |  |  | 
O=C(O)Cc1ccccc1Nc1c(Cl)cccc1Cl [Diclofenac, diclofenac] |  | 1.04 | 1.34 | 1.00 | 1.16 | 1.19 |  |  | 
CN(CCOc1ccc(CC2SC(=O)NC2=O)cc1)c1ccccn1 (stereo not shown) [Rosiglitazone, rosiglitazone] |  |  |  |  |  |  | 1.08 | 1.27 | 1776

Where two headings read alike, the source gives them in different places.
